For 5 molecules, viability results are on record in PubChem BioAssay AID827 (SRMLSC, 2007).

Only a part is listed here, and it is no random draw. Some results for these compounds are left out of this collection, so the calls shown say nothing about other tests. Active and inactive are the calls of the source.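 Rule for the calls: active = viability at or below a set limit, 4 SD under the median of all tested compounds (cut at about 3.7% in these data); inactive = the rest.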

This assay is described as follows: viability loss in PTEN-deleted colon tumor cells – cell-based, HCT116, CellTiter-Glo, primary screen (AID 827).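 Note: PTEN knockout HCT116 line with beta catenin targeted HCT116 as companion control.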 The note with it: HCT116 PTEN-null viability, 60 h, at 10 µM, active compounds read low. In general terms: ATP-based viability assays read luminescence as a measure of living cells.
With `CC(C)N1C(=O)CC2(CCN(CCOC(=O)C(O)(c3ccccc3)c3ccccc3)CC2)C1=O`, the viability is inactive: 85%.

For the molecule `CN(C)C1CCCC1OC(=O)C(O)(c1ccccc1)c1ccccc1` (stereo not given), the viability was inactive: 94.8%.

As for `CCN1CCCC(OC(=O)C2(O)c3ccccc3C=Cc3ccccc32)C1` (stereo not given), the viability was inactive: 94%.

As to `O=C(OC1CN2CCC1CC2)C(CO)(c1ccccc1)c1ccccc1` (stereo not given), the viability is inactive: 103%.

Regarding `CN(C)c1cccc(C(=O)NCC2(N(C)C)CCCCC2)c1`, the viability was inactive: 82.7%.

As usually defined, the viability is a read-out of living cells in per cent, often relative to untreated cells.
